We go through one molecule from publication PMC4632126, “High specific selectivity and Membrane-Active Mechanism of the synthetic centrosymmetric α-helical peptides with Gly-Gly pairs” (Scientific Reports, 2015).

In the data set the test system is human red blood cells (hRBCs). Briefly: Hemolytic activity. The following applies: concentration causing 5% hemolysis of human red blood cells; about 1% hRBC in PBS, 37 °C, 1 h, OD 576 nm.

As for `CC[C@H](C)[C@H](NC(=O)CN)C(=O)NCC(=O)N[C@@H](C)C(=O)N[C@H](C(=O)N[C@@H](CC(C)C)C(=O)N[C@@H](CCCCN)C(=O)N[C@H](C(=O)N[C@@H](CC(C)C)C(=O)N[C@H](C(=O)N[C@H](C(=O)NCC(=O)N[C@@H](CC(C)C)C(=O)N1CCC[C@H]1C(=O)N[C@@H](C)C(=O)N[C@@H](CC(C)C)C(=O)N[C@H](C(=O)N[C@@H](CO)C(=O)N[C@@H](Cc1c[nH]c2ccccc12)C(=O)N[C@H](C(=O)N[C@@H](CCCCN)C(=O)N[C@@H](CCCNC(=N)N)C(=O)N[C@@H](CCCCN)C(=O)N[C@@H](CCCNC(=N)N)C(=O)N[C@@H](CCC(N)=O)C(=O)N[C@@H](CCC(N)=O)C(N)=O)[C@@H](C)CC)[C@@H](C)CC)[C@@H](C)O)[C@@H](C)O)C(C)C)C(C)C` [Melittin, reference compound], the “MHC (minimum hemolytic concentration)” value was 0.25 µM.
